# Data taken from patent US20090312270A1, “Peptides having an ace inhibiting effect” (priority 2005, published 2009).
# Legend:
# [1] = Simulated in-vitro gastro-intestinal digestion of synthetic MAP and ITP (micro-dissolution); format: in vitro ADME
# [2] = Simulated in-vitro gastro-intestinal digestion of protein hydrolysate (PH); format: in vitro ADME; conditions: for resistance against GIT digestion: PH processed by artificial gastro-intestinal tract
# Description: Milk proteins and milk protein hydrolysates are commonly known as precursors of a large range of ACE inhibitory peptides. After consumption, the proteins and peptides are subjected to various digestive enzymatic processes in the human gastrointestinal tract, which results in the release of in-vivo ACE inhibitory peptides. In order to assess the break-down of the identified bioactive peptides and the formation of novel active peptides after human consumption, PH was processed by an artificial gastro-intestinal tract, which simulated conditions typically found in the human body. At certain times samples were taken from the GIT model system. These were also analysed using the on-line HPLC-Bioassay-MS or HRS-MS system.
# Digestion of protein hydrolysate (hereafter PH), a hydrolyzed casein protein isolate obtained from DSM (Delft, The Netherlands). The protein hydrolysate (PH) was prepared by incubation of 10 wt % potassium caseinate with overproduced and essentially pure endoprotease from Aspergillus niger as described in WO 02/45524.
# The digestion procedure was performed using a dissolution model (Vankel) with a 100 ml flask. The temperature of the water bath was set to 37.5° C. and the paddle speed was chosen such that the sample was kept in suspension (100 rpm).
# About 3.4 grams of PH (protein level of 59%) was dissolved/suspended in 100 ml Milli-Q water. During gastric simulation 5 M HCl was used to decrease the pH, at the end of gastric simulation and during the duodenal phase 5 M NaOH was used to raise the pH.
# The protein hydrolysate suspension was preheated to 37.5° C. At t=0 min 0.31 g of pepsin (Fluka order no. 77161) was suspended separately in 5 ml of the sample and was directly added.
# The pH was adjusted slowly by hand using a separate pH meter according to the following scheme;
# At t=90 min 0.139 g of 8 times USP pancreatin (Sigma order no. P7545) was suspended separately in 5 ml of the sample and was directly added;
# The experiment was stopped at t=125 min and the pH was checked (was still pH 7).
# The samples were transferred into a beaker and were heated in a microwave till boiling. Subsequently, the samples were transferred into glass tubes and incubated at 95° C. for 60 min. This is necessary to inactivate all protease activity. After cooling the samples were put in falcon tubes and centrifuged for 10 min at 3000×g. The supernatant was freeze dried. The total N concentration was determined and converted to protein level using the Kjeldahl factor of casein (6.38). The protein level of the PH digest was 48.4%.
# [3] = in PH after digestion in artificial human gastro intestinal tract
smiles,measurement,setting,value
"CC[C@H](C)[C@H](N)C(=O)N[C@H](C(=O)N1CCC[C@H]1C(=O)O)[C@@H](C)O [ITP, Ile-Thr-Pro]",% average,"[1]; 1 microgram/ml, time 0 min",100%
same,% remaining trial 1,"[1]; 1 microgram/ml, time 0 min",100%
same,% remaining trial 2,"[1]; 1 microgram/ml, time 0 min",100%
same,conc Ng/ml a,"[1]; 1 microgram/ml, time 0 min",1325.201 ng/mL
same,conc Ng/ml b,"[1]; 1 microgram/ml, time 0 min",901.297 ng/mL
same,% remaining trial 1,"[1]; 1 microgram/ml, time 30 min",93%
same,conc Ng/ml a,"[1]; 1 microgram/ml, time 30 min",1236.423 ng/mL
same,conc Ng/ml b,"[1]; 1 microgram/ml, time 30 min",952.165 ng/mL
same,% remaining trial 1,"[1]; 1 microgram/ml, time 60 min",72%
same,% remaining trial 2,"[1]; 1 microgram/ml, time 60 min",99%
same,conc Ng/ml a,"[1]; 1 microgram/ml, time 60 min",950.665 ng/mL
same,conc Ng/ml b,"[1]; 1 microgram/ml, time 60 min",893.015 ng/mL
same,% remaining trial 1,"[1]; 1 microgram/ml, time 65 min",55%
same,% remaining trial 2,"[1]; 1 microgram/ml, time 65 min",75%
same,conc Ng/ml a,"[1]; 1 microgram/ml, time 65 min",722.452 ng/mL
same,conc Ng/ml b,"[1]; 1 microgram/ml, time 65 min",677.991 ng/mL
same,% remaining trial 2,"[1]; 1 microgram/ml, time 75 min",77%
same,conc Ng/ml b,"[1]; 1 microgram/ml, time 75 min",698.078 ng/mL
same,% remaining trial 1,"[1]; 1 microgram/ml, time 90 min",46%
same,% remaining trial 2,"[1]; 1 microgram/ml, time 90 min",78%
same,conc Ng/ml a,"[1]; 1 microgram/ml, time 90 min",603.143 ng/mL
same,conc Ng/ml b,"[1]; 1 microgram/ml, time 90 min",704.863 ng/mL
same,% remaining trial 1,"[1]; 1 microgram/ml, time 120 min",53%
same,% remaining trial 2,"[1]; 1 microgram/ml, time 120 min",75%
same,conc Ng/ml a,"[1]; 1 microgram/ml, time 120 min",701.749 ng/mL
same,conc Ng/ml b,"[1]; 1 microgram/ml, time 120 min",678.751 ng/mL
same,% average,"[1]; 10 microgram/ml, time 0 min",100%
same,% remaining trial 1,"[1]; 10 microgram/ml, time 0 min",100%
same,% remaining trial 2,"[1]; 10 microgram/ml, time 0 min",100%
same,conc Ng/ml a,"[1]; 10 microgram/ml, time 0 min",11230.3 ng/mL
same,conc Ng/ml b,"[1]; 10 microgram/ml, time 0 min",9388.467 ng/mL
same,% remaining trial 1,"[1]; 10 microgram/ml, time 30 min",78%
same,% remaining trial 2,"[1]; 10 microgram/ml, time 30 min",84%
same,conc Ng/ml a,"[1]; 10 microgram/ml, time 30 min",8725.687 ng/mL
same,conc Ng/ml b,"[1]; 10 microgram/ml, time 30 min",7884.828 ng/mL
same,% remaining trial 1,"[1]; 10 microgram/ml, time 60 min",76%
same,conc Ng/ml a,"[1]; 10 microgram/ml, time 60 min",8542.271 ng/mL
same,conc Ng/ml b,"[1]; 10 microgram/ml, time 60 min",9951.495 ng/mL
same,% remaining trial 1,"[1]; 10 microgram/ml, time 65 min",60%
same,% remaining trial 2,"[1]; 10 microgram/ml, time 65 min",91%
same,conc Ng/ml a,"[1]; 10 microgram/ml, time 65 min",6739.74 ng/mL
same,conc Ng/ml b,"[1]; 10 microgram/ml, time 65 min",8504.414 ng/mL
same,% remaining trial 1,"[1]; 10 microgram/ml, time 75 min",62%
same,% remaining trial 2,"[1]; 10 microgram/ml, time 75 min",64%
same,conc Ng/ml a,"[1]; 10 microgram/ml, time 75 min",7016.45 ng/mL
same,conc Ng/ml b,"[1]; 10 microgram/ml, time 75 min",6052.258 ng/mL
same,% remaining trial 1,"[1]; 10 microgram/ml, time 90 min",64%
same,% remaining trial 2,"[1]; 10 microgram/ml, time 90 min",60%
same,conc Ng/ml a,"[1]; 10 microgram/ml, time 90 min",7212.26 ng/mL
same,conc Ng/ml b,"[1]; 10 microgram/ml, time 90 min",5660.004 ng/mL
same,% remaining trial 1,"[1]; 10 microgram/ml, time 120 min",46%
same,conc Ng/ml a,"[1]; 10 microgram/ml, time 120 min",5168.85 ng/mL
same,resistance against GIT digestion,[2],high resistance
same,Concentration in μg g^−1 powder,[2]; [3],889.13 μg g^−1 powder
same,Concentration in μg g^−1 powder,[2]; in PH before digestion,903.74 μg g^−1 powder
"CSCC[C@H](N)C(=O)N[C@@H](C)C(=O)N1CCC[C@H]1C(=O)O [MAP, Met-Ala-Pro]",% average,"[1]; 1 microgram/ml, time 0 min",100%
same,% remaining trial 1,"[1]; 1 microgram/ml, time 0 min",100%
same,% remaining trial 2,"[1]; 1 microgram/ml, time 0 min",100%
same,conc Ng/ml b,"[1]; 1 microgram/ml, time 0 min",2962.5 ng/mL
same,% remaining trial 2,"[1]; 1 microgram/ml, time 30 min",93%
same,conc Ng/ml b,"[1]; 1 microgram/ml, time 30 min",2760 ng/mL
same,% remaining trial 1,"[1]; 1 microgram/ml, time 60 min",64%
same,conc Ng/ml a,"[1]; 1 microgram/ml, time 60 min",1902.6 ng/mL
same,% remaining trial 1,"[1]; 1 microgram/ml, time 65 min",47%
same,% remaining trial 2,"[1]; 1 microgram/ml, time 65 min",56%
same,conc Ng/ml a,"[1]; 1 microgram/ml, time 65 min",1384.6 ng/mL
same,conc Ng/ml b,"[1]; 1 microgram/ml, time 65 min",1654.1 ng/mL
same,% remaining trial 1,"[1]; 1 microgram/ml, time 75 min",43%
same,% remaining trial 2,"[1]; 1 microgram/ml, time 75 min",54%
same,conc Ng/ml b,"[1]; 1 microgram/ml, time 75 min",1608.3 ng/mL
same,% remaining trial 1,"[1]; 1 microgram/ml, time 90 min",25%
same,% remaining trial 2,"[1]; 1 microgram/ml, time 90 min",31%
same,conc Ng/ml a,"[1]; 1 microgram/ml, time 90 min",730.5 ng/mL
same,conc Ng/ml b,"[1]; 1 microgram/ml, time 90 min",911.6 ng/mL
same,% remaining trial 1,"[1]; 1 microgram/ml, time 120 min",13%
same,% remaining trial 2,"[1]; 1 microgram/ml, time 120 min",17%
same,conc Ng/ml a,"[1]; 1 microgram/ml, time 120 min",377.2 ng/mL
same,conc Ng/ml b,"[1]; 1 microgram/ml, time 120 min",503.3 ng/mL
same,% average,"[1]; 10 microgram/ml, time 0 min",100%
same,% remaining trial 1,"[1]; 10 microgram/ml, time 0 min",100%
same,% remaining trial 2,"[1]; 10 microgram/ml, time 0 min",100%
same,conc Ng/ml b,"[1]; 10 microgram/ml, time 0 min",82499.2 ng/mL
same,% remaining trial 1,"[1]; 10 microgram/ml, time 30 min",61%
same,% remaining trial 2,"[1]; 10 microgram/ml, time 30 min",93%
same,conc Ng/ml a,"[1]; 10 microgram/ml, time 30 min",50635.6 ng/mL
same,conc Ng/ml b,"[1]; 10 microgram/ml, time 30 min",76600.6 ng/mL
same,% remaining trial 1,"[1]; 10 microgram/ml, time 65 min",35%
same,% remaining trial 2,"[1]; 10 microgram/ml, time 65 min",40%
same,conc Ng/ml a,"[1]; 10 microgram/ml, time 65 min",28492.5 ng/mL
same,conc Ng/ml b,"[1]; 10 microgram/ml, time 65 min",33339.1 ng/mL
same,% remaining trial 1,"[1]; 10 microgram/ml, time 75 min",27%
same,% remaining trial 2,"[1]; 10 microgram/ml, time 75 min",27%
same,conc Ng/ml a,"[1]; 10 microgram/ml, time 75 min",21936.4 ng/mL
same,conc Ng/ml b,"[1]; 10 microgram/ml, time 75 min",21991.9 ng/mL
same,% remaining trial 1,"[1]; 10 microgram/ml, time 90 min",9%
same,% remaining trial 2,"[1]; 10 microgram/ml, time 90 min",13%
same,conc Ng/ml a,"[1]; 10 microgram/ml, time 90 min",7588.3 ng/mL
same,conc Ng/ml b,"[1]; 10 microgram/ml, time 90 min",10490.8 ng/mL
same,% average,"[1]; 10 microgram/ml, time 120 min",3%
same,% remaining trial 1,"[1]; 10 microgram/ml, time 120 min",3%
same,% remaining trial 2,"[1]; 10 microgram/ml, time 120 min",3%
same,conc Ng/ml a,"[1]; 10 microgram/ml, time 120 min",2810.6 ng/mL
same,conc Ng/ml b,"[1]; 10 microgram/ml, time 120 min",2661.8 ng/mL
same,resistance against GIT digestion,[2],high resistance
same,Concentration in μg g^−1 powder,[2]; [3],3095.8 μg g^−1 powder
same,Concentration in μg g^−1 powder,[2]; in PH before digestion,2851.4 μg g^−1 powder
